BindingDB's records for doi:10.1021/acschembio.6b00776 (Wayne State University, 2017)

The chains behind the UniProt entries cited, without tags or fusion partners. Where a name states a change or a piece, a line headed by the entry shows the natural chain unless it says otherwise.
UniProt P56524: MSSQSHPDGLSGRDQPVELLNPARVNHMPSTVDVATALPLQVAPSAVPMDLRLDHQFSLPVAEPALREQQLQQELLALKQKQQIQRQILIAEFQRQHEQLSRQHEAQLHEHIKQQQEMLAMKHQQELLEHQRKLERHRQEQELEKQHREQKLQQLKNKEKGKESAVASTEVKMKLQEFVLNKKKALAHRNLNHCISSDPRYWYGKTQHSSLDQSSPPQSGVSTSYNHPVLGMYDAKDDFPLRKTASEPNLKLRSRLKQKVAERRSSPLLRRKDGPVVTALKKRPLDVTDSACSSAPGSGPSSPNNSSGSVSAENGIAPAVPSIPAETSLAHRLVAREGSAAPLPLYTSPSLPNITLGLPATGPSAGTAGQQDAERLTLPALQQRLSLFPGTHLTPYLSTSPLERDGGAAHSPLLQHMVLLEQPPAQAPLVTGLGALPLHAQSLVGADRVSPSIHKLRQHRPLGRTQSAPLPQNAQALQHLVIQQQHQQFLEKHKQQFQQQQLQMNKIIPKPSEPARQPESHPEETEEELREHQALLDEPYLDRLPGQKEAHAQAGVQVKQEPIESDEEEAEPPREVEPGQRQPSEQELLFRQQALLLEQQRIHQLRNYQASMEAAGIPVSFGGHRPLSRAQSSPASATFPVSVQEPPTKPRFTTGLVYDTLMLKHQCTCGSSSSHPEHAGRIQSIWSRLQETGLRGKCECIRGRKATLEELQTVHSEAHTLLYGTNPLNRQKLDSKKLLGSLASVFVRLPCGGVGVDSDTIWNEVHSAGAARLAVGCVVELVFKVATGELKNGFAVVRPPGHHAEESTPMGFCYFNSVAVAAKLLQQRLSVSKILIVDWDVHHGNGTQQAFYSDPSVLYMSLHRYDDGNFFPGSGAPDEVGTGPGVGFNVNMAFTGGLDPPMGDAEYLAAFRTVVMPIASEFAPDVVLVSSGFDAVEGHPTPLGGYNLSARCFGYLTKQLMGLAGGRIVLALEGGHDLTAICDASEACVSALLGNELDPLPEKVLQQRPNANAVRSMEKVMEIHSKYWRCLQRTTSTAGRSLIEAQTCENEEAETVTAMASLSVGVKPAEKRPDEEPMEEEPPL

Key:
Histone deacetylase 4 = Histone deacetylase 4 (Homo sapiens, UniProt P56524)
Histone deacetylase 6 = target: T1, Histone deacetylase 6 (Homo sapiens, UniProt Q9UBN7)
T1 sequence (Q9UBN7 whole entry): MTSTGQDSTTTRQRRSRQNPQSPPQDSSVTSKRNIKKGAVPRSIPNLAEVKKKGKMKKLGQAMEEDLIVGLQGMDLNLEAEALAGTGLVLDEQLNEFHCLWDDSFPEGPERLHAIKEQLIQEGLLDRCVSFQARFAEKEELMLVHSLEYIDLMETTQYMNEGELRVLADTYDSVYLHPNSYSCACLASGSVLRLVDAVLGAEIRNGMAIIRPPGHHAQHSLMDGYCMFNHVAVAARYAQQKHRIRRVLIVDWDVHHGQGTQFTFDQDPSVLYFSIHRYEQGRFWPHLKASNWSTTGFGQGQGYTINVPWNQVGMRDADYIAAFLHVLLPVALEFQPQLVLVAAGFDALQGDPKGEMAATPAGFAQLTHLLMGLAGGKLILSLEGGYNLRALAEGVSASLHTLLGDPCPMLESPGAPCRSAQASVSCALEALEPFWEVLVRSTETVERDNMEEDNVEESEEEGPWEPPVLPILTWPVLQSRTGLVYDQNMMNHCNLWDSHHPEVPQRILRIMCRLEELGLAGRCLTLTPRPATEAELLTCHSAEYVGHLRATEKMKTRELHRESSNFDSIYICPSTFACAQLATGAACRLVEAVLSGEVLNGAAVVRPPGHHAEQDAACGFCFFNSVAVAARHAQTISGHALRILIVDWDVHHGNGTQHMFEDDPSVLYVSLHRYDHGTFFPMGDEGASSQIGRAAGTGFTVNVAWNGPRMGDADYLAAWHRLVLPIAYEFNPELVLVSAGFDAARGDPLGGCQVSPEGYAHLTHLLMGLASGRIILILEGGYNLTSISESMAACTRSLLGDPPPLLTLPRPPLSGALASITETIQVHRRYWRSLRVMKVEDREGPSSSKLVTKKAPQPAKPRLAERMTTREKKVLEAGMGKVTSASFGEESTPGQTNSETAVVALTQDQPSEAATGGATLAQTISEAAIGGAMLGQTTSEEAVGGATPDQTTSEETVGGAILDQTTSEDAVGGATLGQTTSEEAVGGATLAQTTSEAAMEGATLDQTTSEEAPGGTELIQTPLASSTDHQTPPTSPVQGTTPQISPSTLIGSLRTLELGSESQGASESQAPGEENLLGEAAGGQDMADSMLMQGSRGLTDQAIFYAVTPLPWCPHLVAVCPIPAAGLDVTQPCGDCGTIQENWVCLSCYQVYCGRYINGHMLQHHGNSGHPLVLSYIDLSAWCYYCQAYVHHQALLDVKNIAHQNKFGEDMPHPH

SMILES | IC50 (Histone deacetylase 4) [µM] | IC50 (Histone deacetylase 6) [µM]
CN1CCc2c(c3ccccc3n2Cc2ccc(C(=O)NO)cc2)C1 | > 30 | 
CC(=O)Nc1ccc(C(=O)Nc2cc(-c3cccs3)ccc2N)cc1 [N-[2-amino-5-(thiophen-2-yl)phenyl]-4-acetamidobenzamide] |  | > 10
